From ChEMBL document CHEMBL5131394, “Structure-activity and mechanistic studies of non-peptidic inhibitors of the PLK1 polo box domain identified through REPLACE” (Eur J Med Chem, 2022)

Tests used:
Format in all cases: functional
[1] = Downregulation of PLK1 in serum starved human PC-3 cell assessed as fold change in PLK1 gene expression at 15 uM and measured after 24 hrs by NanoDrop spectophotometry relative to control
[2] = Downregulation of Aurora kinase A in serum starved human PC-3 cell assessed as fold change in Aurora kinase A gene expression at 15 uM and measured after 24 hrs by NanoDrop spectophotometry relative to control
[3] = Downregulation of histone H2BM in serum starved human PC-3 cell assessed as fold change in histone H2BM gene expression at 15 uM and measured after 24 hrs by NanoDrop spectophotometry relative to control
[4] = Downregulation of cyclin B1 in serum starved human PC-3 cell assessed as fold change in cyclin B1 gene expression at 15 uM and measured after 24 hrs by NanoDrop spectophotometry relative to control
[5] = Downregulation of cdc27 in serum starved human PC-3 cell assessed as fold change in cdc27 gene expression at 15 uM and measured after 24 hrs by NanoDrop spectophotometry relative to control
[6] = Downregulation of cdcA3 in serum starved human PC-3 cell assessed as fold change in cdcA3 gene expression at 15 uM and measured after 24 hrs by NanoDrop spectophotometry relative to control
[7] = Downregulation of cdc20 in serum starved human PC-3 cell assessed as fold change in cdc20 gene expression at 15 uM and measured after 24 hrs by NanoDrop spectophotometry relative to control
[8] = Downregulation of cdcA2 in serum starved human PC-3 cell assessed as fold change in cdcA2 gene expression at 15 uM and measured after 24 hrs by NanoDrop spectophotometry relative to control

CCCCCCCCc1ccc(C(=O)Nc2ccc(C)cc2C(=O)O)cc1
fold change (FC) [1]: 1.86
fold change (FC) [2]: 2.53
fold change (FC) [3]: 4.16
fold change (FC) [4]: 2.34
fold change (FC) [5]: 2.05
fold change (FC) [6]: 2.73
fold change (FC) [7]: 2.14
fold change (FC) [8]: 1.6
